Legend:
[1] = target: T1, Indoleamine 2,3-dioxygenase 1 (Homo sapiens, UniProt P14902); test: Inhibition of full-length human IDO1 expressed in Escherichia coli Rosetta (DE3) using L-Trp substrate by HPLC analysis
[2] = target: T1, Indoleamine 2,3-dioxygenase 1; test: Inhibition of IDO1 in IFN-gamma-stimulated human HeLa cells assessed as decrease in kynurenine levels after 48 hrs; assay type: cell-based

Amino acid sequences for entries named in this document (tags omitted).
UniProt P14902, whole entry: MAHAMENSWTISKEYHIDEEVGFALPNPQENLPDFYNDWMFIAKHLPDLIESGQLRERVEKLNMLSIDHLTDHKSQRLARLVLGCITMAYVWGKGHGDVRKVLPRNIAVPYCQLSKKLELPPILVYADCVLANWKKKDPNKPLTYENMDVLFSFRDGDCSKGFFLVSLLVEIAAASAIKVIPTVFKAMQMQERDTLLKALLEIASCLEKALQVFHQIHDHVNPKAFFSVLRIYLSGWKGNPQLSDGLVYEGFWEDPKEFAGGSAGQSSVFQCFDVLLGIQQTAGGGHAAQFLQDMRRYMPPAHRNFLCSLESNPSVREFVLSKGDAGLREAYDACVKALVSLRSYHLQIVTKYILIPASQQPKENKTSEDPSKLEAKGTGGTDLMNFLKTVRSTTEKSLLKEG

IC50 [1]: 53 nM
IC50 [2]: 82 nM
Compound: Oc1ccc(Cl)cc1-c1c[nH]nn1

Reference: ChEMBL document CHEMBL4414585, “Inhibition Mechanisms of Indoleamine 2,3-Dioxygenase 1 (IDO1)” (J Med Chem, 2019)
